Where only a bound is given, the exact number is not on record here.

By UniProt entry, the sequences of proteins in these tests, tags left out. Residues count along the entry.
UniProt P01901, 22-295 limits assumed: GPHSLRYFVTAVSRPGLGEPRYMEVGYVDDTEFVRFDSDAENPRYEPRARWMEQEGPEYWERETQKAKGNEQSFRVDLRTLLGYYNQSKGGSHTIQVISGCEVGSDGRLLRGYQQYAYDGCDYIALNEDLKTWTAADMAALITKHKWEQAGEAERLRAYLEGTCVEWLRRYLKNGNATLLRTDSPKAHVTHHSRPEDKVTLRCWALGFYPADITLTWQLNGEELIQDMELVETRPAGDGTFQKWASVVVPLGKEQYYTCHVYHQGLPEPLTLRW
UniProt P01901, 22-369 limits assumed: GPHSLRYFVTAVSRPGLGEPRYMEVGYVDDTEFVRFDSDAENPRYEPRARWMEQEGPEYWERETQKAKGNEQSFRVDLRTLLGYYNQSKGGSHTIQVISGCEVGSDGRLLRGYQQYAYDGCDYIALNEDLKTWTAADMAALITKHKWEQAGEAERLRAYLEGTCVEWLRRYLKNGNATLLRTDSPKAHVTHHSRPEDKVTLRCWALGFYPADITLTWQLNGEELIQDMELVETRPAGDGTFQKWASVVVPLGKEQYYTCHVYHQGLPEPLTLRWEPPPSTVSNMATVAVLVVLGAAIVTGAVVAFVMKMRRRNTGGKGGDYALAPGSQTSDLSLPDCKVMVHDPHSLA

The values that follow come from US20200339655A1, “METHODS FOR PRODUCING A MHC MULTIMER” (priority 2017, published 2020).

The target of test [1] is T1, H-2K^b (Mus musculus, UniProt P01901). The experiment in a line: Temperature-mediated peptide exchange on H-2K^b analyzed by gel filtration HPLC. In kind it is binding. The following applies: H-2K^b-FAPGNAPAL
(In gel filtration, larger molecules generally elute earlier.)

The target in test [2] is T1, H-2K^b. The following applies: affinity to H-2K^b, published evidence; cited from earlier work.
The target of test [3] is T1, H-2K^b.
Test [4] concerns SIINFEKL-specific OT-I T cells. The experiment in a line: MHC I multimer staining of OT-I splenocytes (flow cytometry). The following applies: exchange 30 min at room temperature.

Consider `CC[C@H](C)[C@H](NC(=O)[C@@H](NC(=O)[C@@H](N)CO)[C@@H](C)CC)C(=O)N[C@@H](CC(N)=O)C(=O)N[C@@H](Cc1ccccc1)C(=O)N[C@@H](CCC(=O)O)C(=O)N[C@@H](CCCCN)C(=O)N[C@@H](CC(C)C)C(=O)O`, for which the “increase of exchange efficiency after 24 h” value in test [1] (compared with 30 min) came out at 15%. Besides, in test [1] (room temperature (20° C.)), the “time to almost complete exchange of FAPGNAPAL” value is given as at most 30 min. In test [2], the Kd (commonly the constant that tells how readily two partners part at equilibrium) is 1.4 nM. The Efficiency of exchange in test [3] (0.5 μM H-2K^b monomer folded with FAPGNAPAL, 50 μM exchange peptide, PBS, 45 min room temperature) is listed as 105.5 ± 4.7 CYO. In addition, in test [3] (0.5 μM H-2K^b monomer, no exchange peptide (—), label = peptide the monomer was folded with), the “Efficiency of exchange, monomer incubated in the absence of peptide” value turned out to be 107.4 ± 12.6 CYO.

Take `CC(C)C[C@H](NC(=O)[C@H](C)NC(=O)[C@@H]1CCCN1C(=O)[C@H](Cc1ccc(O)cc1)NC(=O)[C@H](CC(N)=O)NC(=O)CNC(=O)[C@@H]1CCCN1C(=O)[C@H](C)NC(=O)[C@@H](N)Cc1ccccc1)C(=O)O`: the “staining of OT-I T cells by exchanged H-2K^b multimers” value in test [4] is reported as “No positive staining”.
